# Measured values from PubChem BioAssay AID1645857 (Buhrlage Lab, Dana-Farber Cancer Institute and Novartis …, 2021).
# By UniProt entry, the sequences of proteins in these tests, tags left out.
# UniProt Q96RU2, whole entry: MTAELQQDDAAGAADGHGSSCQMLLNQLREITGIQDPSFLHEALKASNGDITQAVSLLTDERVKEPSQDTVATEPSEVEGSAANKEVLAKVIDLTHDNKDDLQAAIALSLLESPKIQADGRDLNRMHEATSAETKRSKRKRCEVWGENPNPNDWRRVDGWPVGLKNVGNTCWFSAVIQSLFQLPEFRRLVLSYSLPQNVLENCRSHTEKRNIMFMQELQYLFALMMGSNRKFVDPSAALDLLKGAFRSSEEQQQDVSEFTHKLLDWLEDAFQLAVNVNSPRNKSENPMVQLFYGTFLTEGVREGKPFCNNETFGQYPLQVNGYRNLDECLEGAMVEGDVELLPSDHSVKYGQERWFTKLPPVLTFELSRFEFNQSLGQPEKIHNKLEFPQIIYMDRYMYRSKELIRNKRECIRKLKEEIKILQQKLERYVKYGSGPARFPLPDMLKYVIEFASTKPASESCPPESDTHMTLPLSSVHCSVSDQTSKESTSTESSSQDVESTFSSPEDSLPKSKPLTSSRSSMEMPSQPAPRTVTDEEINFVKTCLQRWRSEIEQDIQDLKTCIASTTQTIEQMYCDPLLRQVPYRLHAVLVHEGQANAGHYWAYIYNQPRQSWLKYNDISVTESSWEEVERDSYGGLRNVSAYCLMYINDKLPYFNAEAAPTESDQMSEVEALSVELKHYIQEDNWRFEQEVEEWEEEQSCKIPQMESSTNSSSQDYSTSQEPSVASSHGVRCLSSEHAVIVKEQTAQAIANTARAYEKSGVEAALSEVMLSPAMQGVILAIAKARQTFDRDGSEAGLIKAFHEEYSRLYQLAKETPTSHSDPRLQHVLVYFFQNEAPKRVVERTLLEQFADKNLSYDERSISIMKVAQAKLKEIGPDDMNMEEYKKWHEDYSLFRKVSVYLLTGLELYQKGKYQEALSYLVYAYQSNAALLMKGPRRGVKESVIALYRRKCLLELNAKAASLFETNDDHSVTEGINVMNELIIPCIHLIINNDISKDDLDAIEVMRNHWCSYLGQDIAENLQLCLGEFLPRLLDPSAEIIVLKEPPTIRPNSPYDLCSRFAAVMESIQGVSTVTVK
# The list shows a part of the results, in another mix than the full data. Some of these compounds have results that are not shown, active ones among them. Activity calls are given as the source filed them. Cut-off read from the data, not from the text of the source: active = inhibition above about 30%; inactive = the rest.
# Target: Ubiquitin carboxyl-terminal hydrolase 28 (Homo sapiens) (UniProt Q96RU2)
# Assay: blocks human USP28 ubiquitin-rhodamine cleavage (AID 1645857)
# Conditions: purified USP28, Ub-rhodamine cleavage fluorescence, 30 min; at 25 µM; hits give high values
row,Compound,inhibition
1,O=C(NCC1(N2CCCCC2)CCCCC1)c1ccc2ccccc2c1,inactive: -5.46%
2,O=C(NCC1(N2CCOCC2)CCCCC1)c1ccccc1F,inactive: -4.59%
3,Cc1c(C(=O)NCC2(N(C)C)CCCCC2)oc2ccccc12,inactive: -3.88%
4,Cc1c(C(=O)NCC2(N(C)C)CCCCC2)oc2ccc(F)cc12,inactive: 9.53%
5,COc1cccc(C(=O)NCC2(N3CCCCC3)CCCCC2)c1,inactive: -33.4%
6,COc1ccc(C(=O)NCC2(N3CCOCC3)CCCCC2)cc1,inactive: -2.83%
7,O=C(NCC1(N2CCCCC2)CCCCC1)c1ccc2c(c1)OCCO2,inactive: 4.34%
